This note sets out measurements from ChEMBL document CHEMBL4706517, “Discovery of novel berberine derivatives with balanced cholinesterase and prolyl oligopeptidase inhibition profile” (Eur J Med Chem, 2020).

By UniProt entry, the sequences of proteins in these tests, tags left out. Where a name states a change or a piece, a line headed by the entry shows the natural chain unless it says otherwise.
UniProt P22303: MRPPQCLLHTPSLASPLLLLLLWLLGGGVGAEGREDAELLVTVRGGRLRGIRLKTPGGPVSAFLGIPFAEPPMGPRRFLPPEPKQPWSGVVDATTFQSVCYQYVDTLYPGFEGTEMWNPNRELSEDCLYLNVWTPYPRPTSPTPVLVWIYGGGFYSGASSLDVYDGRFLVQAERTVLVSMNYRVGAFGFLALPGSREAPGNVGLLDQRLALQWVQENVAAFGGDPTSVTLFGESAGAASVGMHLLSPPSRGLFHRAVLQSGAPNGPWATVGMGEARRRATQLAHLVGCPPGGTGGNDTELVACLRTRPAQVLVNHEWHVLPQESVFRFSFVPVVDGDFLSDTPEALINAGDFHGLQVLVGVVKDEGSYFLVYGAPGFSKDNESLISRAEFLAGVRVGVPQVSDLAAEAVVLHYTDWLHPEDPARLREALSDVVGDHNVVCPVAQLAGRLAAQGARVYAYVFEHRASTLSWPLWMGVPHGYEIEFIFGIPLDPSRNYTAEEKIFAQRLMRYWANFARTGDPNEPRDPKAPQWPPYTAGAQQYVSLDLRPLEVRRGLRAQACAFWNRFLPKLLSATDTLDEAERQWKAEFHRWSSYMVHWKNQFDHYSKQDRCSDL

This test deals with Acetylcholinesterase (Homo sapiens, UniProt P22303). In words: Inhibition of recombinant human acetylcholinesterase using acetylthiocholine iodide as substrate preincubated with enzyme for 5 mins followed by substrate addition and measured at 2 mins interval by Ellman's method.

One may read the IC50 as the concentration that inhibits the measured activity by half. Regarding `COc1ccc2cc3[n+](cc2c1OC)CCc1cc2c(cc1-3)OCO2.[Cl-]` [BERBERINE CHLORIDE], the IC50 amounted to 17.4 µM.
